This assay has as its target Tyrosine-protein phosphatase non-receptor type 11 (Homo sapiens, UniProt Q06124). The assay is described as follows: Inhibition of human SHP2 as hydrolysis of pNPP after 2 mins.

By UniProt entry, the sequences of proteins in these tests, tags left out.
UniProt Q06124, whole entry: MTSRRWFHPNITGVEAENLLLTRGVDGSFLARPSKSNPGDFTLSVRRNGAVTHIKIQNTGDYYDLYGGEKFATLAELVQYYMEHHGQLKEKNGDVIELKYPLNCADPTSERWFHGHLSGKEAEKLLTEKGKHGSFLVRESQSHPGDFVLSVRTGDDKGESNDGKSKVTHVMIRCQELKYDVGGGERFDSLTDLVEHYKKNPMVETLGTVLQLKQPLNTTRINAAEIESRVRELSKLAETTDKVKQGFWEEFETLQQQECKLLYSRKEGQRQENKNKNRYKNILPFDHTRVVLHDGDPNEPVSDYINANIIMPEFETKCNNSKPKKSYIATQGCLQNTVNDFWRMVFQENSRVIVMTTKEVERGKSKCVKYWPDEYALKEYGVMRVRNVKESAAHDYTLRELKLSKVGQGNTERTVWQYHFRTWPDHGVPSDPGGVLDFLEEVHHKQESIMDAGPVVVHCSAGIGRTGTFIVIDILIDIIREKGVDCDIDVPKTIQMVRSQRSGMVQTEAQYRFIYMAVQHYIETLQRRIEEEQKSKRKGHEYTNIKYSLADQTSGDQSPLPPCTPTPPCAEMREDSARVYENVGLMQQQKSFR

Molecules are shown by their SMILES. A value given as a limit tells only on which side of the number the result lay.

In the case of `Oc1ccc(-c2cccc(-c3noc(Cc4c[nH]c5ccccc45)n3)n2)cc1`, the IC50 (in general, the concentration needed to halve the response being measured) is above 120 µM.

These data come from ChEMBL document CHEMBL3758136, “Design, synthesis and in vitro activity of phidianidine B derivatives as novel PTP1B inhibitors with specific selectivity” (Bioorg Med Chem Lett, 2016).
